{"sequences": {"note": "Protein sequences, listed by entry. Tags and fused reporters are not part of them. Lines headed by an entry give the natural chain unless they say otherwise; changes in a name come on top.", "UniProt P09619": "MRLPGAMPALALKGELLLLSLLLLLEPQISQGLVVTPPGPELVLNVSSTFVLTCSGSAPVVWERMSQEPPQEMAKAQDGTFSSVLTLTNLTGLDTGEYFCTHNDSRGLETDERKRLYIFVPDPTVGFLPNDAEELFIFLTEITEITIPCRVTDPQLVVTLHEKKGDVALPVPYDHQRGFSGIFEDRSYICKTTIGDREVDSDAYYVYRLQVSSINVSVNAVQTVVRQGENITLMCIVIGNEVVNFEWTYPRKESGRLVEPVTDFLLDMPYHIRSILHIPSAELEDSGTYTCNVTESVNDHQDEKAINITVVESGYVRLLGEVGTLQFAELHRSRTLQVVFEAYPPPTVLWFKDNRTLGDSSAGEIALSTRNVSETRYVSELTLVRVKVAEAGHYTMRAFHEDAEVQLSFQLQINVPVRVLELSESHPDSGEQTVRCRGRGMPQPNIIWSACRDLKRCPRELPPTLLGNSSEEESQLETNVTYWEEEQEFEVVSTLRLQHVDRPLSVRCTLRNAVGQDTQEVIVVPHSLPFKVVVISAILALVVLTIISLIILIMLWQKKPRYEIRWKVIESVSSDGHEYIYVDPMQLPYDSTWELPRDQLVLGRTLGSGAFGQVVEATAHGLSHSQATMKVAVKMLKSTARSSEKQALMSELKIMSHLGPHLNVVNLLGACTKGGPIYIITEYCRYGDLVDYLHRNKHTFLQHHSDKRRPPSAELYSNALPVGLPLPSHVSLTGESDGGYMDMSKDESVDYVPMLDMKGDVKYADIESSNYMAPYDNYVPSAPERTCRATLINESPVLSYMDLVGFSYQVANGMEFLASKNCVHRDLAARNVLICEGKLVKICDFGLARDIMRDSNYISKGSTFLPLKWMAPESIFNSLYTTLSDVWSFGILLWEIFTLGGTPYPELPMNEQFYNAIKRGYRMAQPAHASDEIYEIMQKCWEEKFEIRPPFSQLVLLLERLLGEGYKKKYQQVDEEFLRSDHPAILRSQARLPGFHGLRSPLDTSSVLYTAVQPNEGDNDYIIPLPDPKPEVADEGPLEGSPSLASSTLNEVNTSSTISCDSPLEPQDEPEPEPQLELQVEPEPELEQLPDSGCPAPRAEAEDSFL"}, "source": "patent US7632645B1", "about": "“EGF receptor transactivation by G-protein-coupled receptors requires metalloproteinase cleavage of proHB-EGF” (Max-Planck-Gesellschaft zur forderung der Wissenschaften …, priority 1999, dated 2009)", "target": "T1, EP-R chimera (EGFR extracellular, PDGFR transmembrane and cytoplasmic signalling domain) (Homo sapiens, UniProt P00533+P09619)", "T1 construct": "the platelet-derived growth-factor receptor (PDGFR) transmembrane and cytoplasmic signalling domain; human EGFR extracellular domain (fusion partner); expressed in transfected cells", "experiment": "Tyrosine phosphorylation of EP-R chimera in Rat-1/EP-R cells (immunoprecipitation with mAb 108.1, αPY immunoblot)", "type": "cell-based", "data": [{"molecule": "Cc1cc2ncc(-c3ccccc3)nc2cc1C", "note": "[AG1295]", "values": [{"measurement": "effect on thrombin-induced tyrosine phosphorylation of the chimeric receptor EP-R", "value": "blocked"}]}]}
